The series concerns fresh blood taken from beagle dog (red blood cells). The series can be described thus: Determination of hemolysis in fresh blood. Format: cell-based. As to the method: 100 μl surfactant solution was added to 400 μl fresh blood taken from beagle dog. The blood and surfactant mixture was gently agitated for 2-3 seconds immediately after addition, followed by 10 mins incubation at 37° C. under gentle shaking. […] During centrifugation the sample separated into a sediment of red blood cells and a supernatant. […] Each determination was carried out for triplicate samples.
After 30 minutes 400 μl of the so-obtained solution was mixed with 100 μl normal saline. From the resulting solution, a small fraction was removed and analysed with respect to hemoglobin content with a Cobas Bio spectrophotometer.
The degree of hemolysis was calculated according to the following expression [formula]
The position of the hemolysis curve along the concentration axis in such a diagram determines the hemolytic activity. The more hemolytic a surfactant is, the lower concentration is required to obtain a certain degree of hemolysis. In order to quantify the hemolytic activity, the concentration was considered at which 5% hemolysis was obtained. The higher the concentration, the lower the activity. The procedure was repeated at least once for all surfactants.

With Sucrose laurate, the “degree of hemolysis, % H” value is on record as 1.274% (surfactant 0.381 mM in blood/surfactant mixture); 3.287% (surfactant 0.610 mM in blood/surfactant mixture); 5.343% (surfactant 0.839 mM in blood/surfactant mixture); 8.328% (surfactant 1.067 mM in blood/surfactant mixture); 10.054% (surfactant 1.296 mM in blood/surfactant mixture); 12.417% (surfactant 1.525 mM in blood/surfactant mixture). Further, for the setting “surfactant concentration in blood/surfactant mixture, read from hemolysis curves”, the “Hemolytic activity (concentration range at which 5% hemolysis is obtained)” value is 0.8 mM.

The values above are taken from patent US20040254129A1, “Use of ethoxylated phytosterols and phytostanols” (priority 2001, published 2004).
